ChEMBL document CHEMBL4359929, “Piperidine and piperazine inhibitors of fatty acid amide hydrolase targeting excitotoxic pathology” (Bioorg Med Chem, 2019)

Chains of the proteins cited; added tags and fusions are not shown.
UniProt P97612, whole entry, looked up: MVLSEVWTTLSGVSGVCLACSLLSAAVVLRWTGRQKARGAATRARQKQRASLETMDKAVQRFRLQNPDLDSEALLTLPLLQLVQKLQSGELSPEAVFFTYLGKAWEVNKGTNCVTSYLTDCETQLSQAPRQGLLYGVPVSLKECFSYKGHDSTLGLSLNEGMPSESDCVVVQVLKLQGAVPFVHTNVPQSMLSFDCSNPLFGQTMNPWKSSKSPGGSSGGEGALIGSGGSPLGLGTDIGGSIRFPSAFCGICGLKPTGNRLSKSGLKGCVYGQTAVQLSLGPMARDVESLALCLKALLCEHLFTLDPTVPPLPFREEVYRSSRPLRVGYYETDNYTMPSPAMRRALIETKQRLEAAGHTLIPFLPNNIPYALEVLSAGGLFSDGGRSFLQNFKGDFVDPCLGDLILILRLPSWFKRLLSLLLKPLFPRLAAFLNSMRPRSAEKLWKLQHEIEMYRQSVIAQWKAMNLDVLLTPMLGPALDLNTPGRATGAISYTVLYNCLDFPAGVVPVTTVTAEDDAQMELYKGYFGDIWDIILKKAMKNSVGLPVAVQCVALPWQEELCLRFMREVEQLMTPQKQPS
UniProt O00519, whole entry, looked up: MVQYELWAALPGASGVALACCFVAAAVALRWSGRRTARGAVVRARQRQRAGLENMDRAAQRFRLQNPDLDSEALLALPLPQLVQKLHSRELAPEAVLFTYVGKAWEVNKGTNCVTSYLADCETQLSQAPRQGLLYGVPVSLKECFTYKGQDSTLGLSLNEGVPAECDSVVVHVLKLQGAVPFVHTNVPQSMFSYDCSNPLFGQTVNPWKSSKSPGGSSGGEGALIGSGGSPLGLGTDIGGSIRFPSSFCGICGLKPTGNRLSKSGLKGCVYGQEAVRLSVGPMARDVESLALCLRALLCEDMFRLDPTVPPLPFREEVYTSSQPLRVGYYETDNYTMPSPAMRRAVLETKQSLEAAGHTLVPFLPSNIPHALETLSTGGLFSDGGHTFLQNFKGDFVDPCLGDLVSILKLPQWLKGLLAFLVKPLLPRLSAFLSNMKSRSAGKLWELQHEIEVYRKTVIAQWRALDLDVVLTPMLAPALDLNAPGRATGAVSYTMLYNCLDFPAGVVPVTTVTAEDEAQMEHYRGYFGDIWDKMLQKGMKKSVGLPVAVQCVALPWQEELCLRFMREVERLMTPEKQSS
UniProt Q99685, whole entry, looked up: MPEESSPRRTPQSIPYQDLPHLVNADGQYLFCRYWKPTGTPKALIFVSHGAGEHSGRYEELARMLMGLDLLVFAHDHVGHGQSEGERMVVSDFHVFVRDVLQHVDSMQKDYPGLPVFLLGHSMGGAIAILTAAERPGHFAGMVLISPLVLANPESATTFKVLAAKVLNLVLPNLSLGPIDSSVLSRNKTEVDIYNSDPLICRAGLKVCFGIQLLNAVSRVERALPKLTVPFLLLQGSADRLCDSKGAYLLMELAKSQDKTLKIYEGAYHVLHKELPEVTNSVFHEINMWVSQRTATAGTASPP

Tests used:
[1] = Stability in rat gastric fluid assessed as half life; type: ADME, tissue-based; settings: in vivo, Gastric juice
Procedure, shortened: (§1)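 Stability assessed as half-life in human, rat and mouse plasma and gastric fluid, and in human, rat and mouse liver microsomal preparations.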

[2] = Stability in rat liver microsomes assessed as half life; type: ADME, Microsome; procedure, shortened: as §1
[3] = target: Fatty-acid amide hydrolase 1 (Rattus norvegicus, UniProt P97612); assay: Inhibition of rat recombinant His/GST-tagged FAAH expressed in Escherichia coli cells using AAMCA as substrate incubated for 15 mins followed by substrate addition and measured after every 20 mins for 4 hrs by fluorescence based assay
[4] = Stability in mouse liver microsomes assessed as half life; type: ADME, Microsome; procedure, shortened: as §1
[5] = target: Fatty-acid amide hydrolase 1 (Homo sapiens, UniProt O00519); assay: Inhibition of human recombinant MBP-tagged FAAH expressed in Escherichia coli cells using AAMCA as substrate incubated for 15 mins followed by substrate addition and measured after every 20 mins for 4 hrs by fluorescence based assay
[6] = Stability in mouse gastric fluid assessed as half life; type: ADME, tissue-based; settings: in vivo, Gastric juice; procedure, shortened: as §1
[7] = Stability in human plasma assessed as half life; type: ADME, cell-free; procedure, shortened: as §1
[8] = target: Monoglyceride lipase (Homo sapiens, UniProt Q99685); assay: Inhibition of human recombinant His-tagged MGL expressed in Escherichia coli BL21 DE3 cells using AHMMCE as substrate preincubated with enzyme for 15 mins followed by substrate addition and measured after every 15 mins for 3 hrs by fluorescence based assay
[9] = Stability in rat plasma assessed as half life; type: ADME, cell-free; procedure, shortened: as §1
[10] = Stability in mouse plasma assessed as half life; type: ADME, cell-free; procedure, shortened: as §1
[11] = Stability in human gastric fluid assessed as half life; type: ADME, tissue-based; settings: simulated gi fluid, Gastric juice; procedure, shortened: as §1
[12] = Stability in human liver microsomes assessed as half life; type: ADME, Microsome; procedure, shortened: as §1

O=C(Oc1cncc(N2CCS(=O)(=O)CC2)c1)N1CCC(c2ccc(F)cc2)CC1
t1/2 [1]: > 60 min | t1/2 [2]: 15 to 25 min | IC50 [3]: 7.1 nM | t1/2 [4]: 15 to 25 min | IC50 [5]: 4.9 nM | t1/2 [6]: > 60 min | t1/2 [7]: > 60 min | IC50 [8]: > 1000 nM | t1/2 [9]: > 60 min | t1/2 [10]: > 60 min | t1/2 [11]: > 60 min | t1/2 [12]: 15 to 25 min
